The list shows a part of the results, in another mix than the full data. Active and inactive are the calls of the source.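 How the source made its calls: active means viability at or below a set limit, 4 SD under the median of all tested compounds (cut at about 3.7% in these data); inactive means the rest.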

This test in a line: growth suppression of PTEN-null HCT116, primary screen, cell-based, CellTiter-Glo (AID 827).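 Further: PTEN knockout HCT116 line with beta catenin targeted HCT116 as companion control.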 Particulars: 60 h, at 10 µM, active compounds read low.
In the case of `CC1CCN(C(=O)Oc2c(Cl)cc(Cl)c3cccnc23)CC1`, the viability (in general, a read-out of living cells in per cent, often relative to untreated cells) is inactive: 58.9%.
The figure for `CN(C)C(=O)OCCc1n(C)cc[n+]1C` is inactive: 92.2%; for `CCc1nc2c(n1)c1c(non1O)c1c2no[n+]1[O-]` it is active: 1.66%; for `CC(=O)N1C2C3N(C(C)=O)C1C1N(C(C)=O)C(C(N1C(C)=O)N3C(C)=O)N2C(C)=O` it is inactive: 92.2%.
As to `O=[N+]([O-])c1cccc2n[nH]nc12`, the viability is inactive: 106%.
For the compound `Oc1ccccc1CNc1ccccn1`, the viability is inactive: 94.2%.
The figure for `O=C(NC(Sc1ccncn1)C(Cl)(Cl)Cl)c1ccccc1` (stereo not drawn) is inactive: 91.4%; for `Cc1c2non([O-])c-2c(C)[n+](=O)[n+]1[O-]` it is inactive: 81.7%.
Take `CC(C)CC(=O)NC(Sc1ccc(Cl)cc1)C(Cl)(Cl)Cl` (stereo not drawn): the viability was inactive: 91.3%.
As for `CN1CCCC(OC(=O)C(c2ccccc2)c2ccccc2)C1` (stereo not drawn), the viability was inactive: 100%.
Regarding `CCN(N=Nc1nonc1N)c1nonc1N`, the viability was inactive: 98.8%.
The figure for `Cc1cc(SC(NC(=O)c2ccc(F)cc2)C(Cl)(Cl)Cl)ncn1` (stereo not drawn) is inactive: 104%; for `CCOP(=O)(Nc1ccccc1)OCC` it is inactive: 108%; for `CCC(=O)N1C2C3N(C(=O)CC)C1C1N(C(=O)CC)C(C(N1C(=O)CC)N3C(=O)CC)N2C(=O)CC` it is inactive: 111%.
For the compound `COC(=O)c1cc2c(s1)N=C(c1ccccc1)N(C)P2(=O)N1CCOCC1` (stereo not drawn), the viability was inactive: 108%.
The figure for `CC(=O)NC(SC(=S)N(CC(C)C)CC(C)C)C(Cl)(Cl)Cl` (stereo not drawn) is inactive: 17.7%; for `CCOC(=O)NC(Sc1ccccc1)C(Cl)(Cl)Cl` (stereo not drawn) it is inactive: 94.6%; for `O=P1(Nc2nc3ccc(Cl)cc3s2)COc2ccccc2O1` (stereo not drawn) it is inactive: 98.9%.
For the compound `c1nnnn1CCn1cnnn1`, the viability is inactive: 109%.
Take `O=P(Nc1nccs1)(c1ccccc1)c1ccccc1`: the viability was inactive: 99.6%.
With `CC(C)C(=O)NC(Sc1ccccc1)C(Cl)(Cl)Cl` (stereo not drawn), the viability is inactive: 81.6%.
The value for `O=C(OC1CN2CCC1CC2)c1cccc(Cl)c1` (stereo not drawn) was inactive: 101%.
The figure for `C(Cc1nn[nH]n1)Cc1nn[nH]n1` is inactive: 104%.
Take `CC(=O)NC(SC(=S)N(C)C)C(Cl)(Cl)Cl` (stereo not drawn): the viability was inactive: 4.85%.
In the case of `Cc1ccc(OCC(=O)OC2CN3CCC2CC3)cc1` (stereo not drawn), the viability is inactive: 97.2%.
The value for `O=P1(Nc2ccc(Br)cn2)COc2ccccc2OC1` was inactive: 94.1%.
For the compound `O=P1(Nc2ncccn2)COc2ccccc2OC1`, the viability was inactive: 103%.
The figure for `Cc1nn(-c2ccccc2)c2c1P(=O)(N1CCOCC1)N(C)C(c1ccccc1)=N2` (stereo not drawn) is inactive: 91.3%.
`Clc1n[nH]nc1-c1nn[nH][15n]1`: the viability was inactive: 100%.
In the case of `O=P1(Nc2ccccn2)COc2ccccc2OC1`, the viability was inactive: 90.4%.
As to `COc1cc(C2NCCC3(OCCO3)C2(C)C)cc(OC)c1OC` (stereo not drawn), the viability was inactive: 103%.
The figure for `CCOP(=O)(Nc1cccc2ccccc12)OCC` is inactive: 86.7%.
For `Cc1ccc(NCCc2c([N+](=O)[O-])cc([N+](=O)[O-])cc2[N+](=O)[O-])cc1`, the viability was inactive: 64.8%.
For `Cc1cccc(OCC(=O)OC2CN3CCC2CC3)c1` (stereo not drawn), the viability is inactive: 111%.
For the compound `CCOP1(=S)c2c(C)nn(CCC#N)c2N=C(c2ccc(F)cc2)N1C` (stereo not drawn), the viability is inactive: 75.7%.
The value for `O=[N+]([O-])c1ccc2c(c1)nnn2O` was inactive: 104%; that for `CCOP1(=S)c2c(C)nn(CCC#N)c2N=C(c2ccccc2F)N1C` (stereo not drawn) was inactive: 86.5%; that for `O=P(Nc1nccs1)(c1ccccc1)c1nc2ccccc2s1` (stereo not drawn) was inactive: 99.7%.
In the case of `CCN(CC)C(=S)SC(NC=O)C(Cl)(Cl)Cl` (stereo not drawn), the viability is active: 2.07%.
Take `O=[N+]([O-])c1cc([N+](=O)[O-])c(-c2ccn[nH]2)s1`: the viability is active: 2.33%.
`ClCCSc1nnc(-c2cccnc2)o1`: the viability is inactive: 96%.
For `Cc1ccc2nc3c(c(C)c2c1)CC(C(Cl)Cl)S3` (stereo not drawn), the viability was inactive: 81.1%.
For the compound `Cc1c2c(nc3ccccc13)SC(C(Cl)Cl)C2` (stereo not drawn), the viability is inactive: 83.7%.
With `O=C(OC1CN2CCC1CC2)C12CC3CC(CC(C3)C1)C2` (stereo not drawn), the viability was inactive: 86.7%.
With `CCC(C)N(CC(C)C)C(=S)SC(NC(C)=O)C(Cl)(Cl)Cl` (stereo not drawn), the viability was inactive: 17.1%.
Consider `O=C(COc1ccccc1)OC1CN2CCC1CC2` (stereo not drawn), for which the viability was inactive: 90.4%.
For `COP1(=S)c2c(C)nn(CCC#N)c2N=C(c2ccc(F)cc2)N1C` (stereo not drawn), the viability is inactive: 101%.
On to `Cc1cc(SC(NC(=O)c2ccccc2)C(Cl)(Cl)Cl)nc(C(C)C)n1` (stereo not drawn), for which the viability was inactive: 100%.

The record behind these values is PubChem BioAssay AID827 (SRMLSC, 2007).
